Measured values as given in PMC4295023 (Investigational New Drugs, 2014).

Assay: Pharmacokinetic analysis of blood samples (noncompartmental)
Type: in vivo, human
Conditions: sorafenib, steady state (cycle 2), non-HCC patients, tivantinib 360 mg BID and sorafenib 400 mg BID
Procedure: Blood samples were collected pre-, 1, 2, 4, 6, 8, 12, and 24 h post-dose on Days 1 and 2 of Cycles 1 and 2. The day before and on the day of PK sampling, tivantinib and sorafenib were administered at the same time. Noncompartmental PK parameters were calculated using WinNonlin (Pharsight, Mountain View, CA).

For `CNC(=O)c1cc(Oc2ccc(NC(=O)Nc3ccc(Cl)c(C(F)(F)F)c3)cc2)ccn1` [sorafenib], the “mean Cmax” value was 6,757 ± 3,725 ng/mL.
